Test results from US20030113828A1, “Compositions and methods for modulating Syk function” (priority 2001, published 2003).

Molecular target: β1A integrin cytoplasmic domain model protein (UniProt P05556)
Test: surface plasmon resonance (BIAcore 3000)

Kd: 76 nM
Substance: Syk(6-370) cleaved from GST-Syk(6-370) by thrombin (from UniProt P43405 6-370) (other; other documents disagree on this pair)
